The values that follow are results of earlier work, collected in patent publication US6846817B2 (Regents of the University of Minnesota, priority 1999, dated 2005).

Amino acid sequences for entries named in this document (tags omitted). Residues count along the entry.
UniProt Q05941, 23-502 limits assumed: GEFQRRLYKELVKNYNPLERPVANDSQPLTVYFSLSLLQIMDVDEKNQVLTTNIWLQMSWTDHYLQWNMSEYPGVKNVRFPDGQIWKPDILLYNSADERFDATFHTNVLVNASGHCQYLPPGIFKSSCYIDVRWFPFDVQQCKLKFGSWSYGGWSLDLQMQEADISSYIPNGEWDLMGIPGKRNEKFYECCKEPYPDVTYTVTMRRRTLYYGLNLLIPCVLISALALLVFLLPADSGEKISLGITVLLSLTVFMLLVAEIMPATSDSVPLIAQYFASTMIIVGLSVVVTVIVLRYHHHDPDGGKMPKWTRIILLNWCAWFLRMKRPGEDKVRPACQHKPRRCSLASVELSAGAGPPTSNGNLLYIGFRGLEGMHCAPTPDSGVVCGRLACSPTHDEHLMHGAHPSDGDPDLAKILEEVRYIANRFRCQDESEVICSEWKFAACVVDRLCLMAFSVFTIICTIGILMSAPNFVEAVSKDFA
UniProt P09483, 31-630 limits assumed: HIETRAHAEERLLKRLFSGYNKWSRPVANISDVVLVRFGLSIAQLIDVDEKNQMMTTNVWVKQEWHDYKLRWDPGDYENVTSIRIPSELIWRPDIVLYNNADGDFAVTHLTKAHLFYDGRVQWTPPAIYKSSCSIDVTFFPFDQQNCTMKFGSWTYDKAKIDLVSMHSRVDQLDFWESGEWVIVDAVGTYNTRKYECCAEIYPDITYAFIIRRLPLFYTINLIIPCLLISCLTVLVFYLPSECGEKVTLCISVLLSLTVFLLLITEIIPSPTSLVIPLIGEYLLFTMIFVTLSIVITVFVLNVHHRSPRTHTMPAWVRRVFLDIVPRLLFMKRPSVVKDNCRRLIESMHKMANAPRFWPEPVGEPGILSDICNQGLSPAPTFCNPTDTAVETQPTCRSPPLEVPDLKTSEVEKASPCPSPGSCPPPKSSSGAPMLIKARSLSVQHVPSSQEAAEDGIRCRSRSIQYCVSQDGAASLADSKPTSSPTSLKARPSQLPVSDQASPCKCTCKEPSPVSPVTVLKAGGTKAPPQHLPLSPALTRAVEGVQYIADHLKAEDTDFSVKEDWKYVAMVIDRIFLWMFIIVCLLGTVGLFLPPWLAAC
UniProt P12390, 25-500 limits assumed: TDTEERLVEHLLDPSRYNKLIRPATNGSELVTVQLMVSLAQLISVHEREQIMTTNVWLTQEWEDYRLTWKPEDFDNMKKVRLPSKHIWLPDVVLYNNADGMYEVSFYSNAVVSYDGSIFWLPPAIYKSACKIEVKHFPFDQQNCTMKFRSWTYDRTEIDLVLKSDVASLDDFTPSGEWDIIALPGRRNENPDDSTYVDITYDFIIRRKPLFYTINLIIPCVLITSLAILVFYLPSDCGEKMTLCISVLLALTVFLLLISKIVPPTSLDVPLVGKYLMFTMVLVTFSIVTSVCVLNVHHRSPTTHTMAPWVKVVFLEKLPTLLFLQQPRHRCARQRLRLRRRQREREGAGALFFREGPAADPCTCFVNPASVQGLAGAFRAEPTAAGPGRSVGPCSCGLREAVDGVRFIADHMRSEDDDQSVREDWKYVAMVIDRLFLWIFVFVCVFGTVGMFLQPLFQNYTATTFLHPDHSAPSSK

Series [1] has as its target α7 nicotine receptor (Rattus norvegicus, UniProt Q05941). The settings on record: cited from earlier work.
The target of series [2] is α4β2 nicotine receptor (Rattus norvegicus, UniProt P09483+P12390). The following applies: read-out: Ki-[3H]Cytisine; rat brain; from Donnelly-Roberts et al., 1998; cited from earlier work.
The target of series [3] is α4β2 nicotinic acetylcholine receptor subtype (Rattus norvegicus, UniProt P09483+P12390). The following applies: read-out: Ki, inhibition of [3H]-nicotine binding; rat brain; cited from earlier work.

The Ki is a measure of affinity in units of concentration, obtained from inhibition or displacement. With `Clc1ccc(OC[C@@H]2CCN2)cn1`, the values for the Ki in series [1] and in series [2] were 4620 nM and 0.039 nM, respectively.

For the compound `Clc1ccc(OC[C@H]2CCN2)cn1`, the inhibition constant (Ki) was 0.037 nM in series [3], 13800 nM in series [1] and 0.037 nM in series [2].
